Data published in patent US8598345B2 (priority 2009, dated 2013).

By UniProt entry, the sequences of proteins in these tests, tags left out. Residues count along the entry.
UniProt P41594, 21-1212: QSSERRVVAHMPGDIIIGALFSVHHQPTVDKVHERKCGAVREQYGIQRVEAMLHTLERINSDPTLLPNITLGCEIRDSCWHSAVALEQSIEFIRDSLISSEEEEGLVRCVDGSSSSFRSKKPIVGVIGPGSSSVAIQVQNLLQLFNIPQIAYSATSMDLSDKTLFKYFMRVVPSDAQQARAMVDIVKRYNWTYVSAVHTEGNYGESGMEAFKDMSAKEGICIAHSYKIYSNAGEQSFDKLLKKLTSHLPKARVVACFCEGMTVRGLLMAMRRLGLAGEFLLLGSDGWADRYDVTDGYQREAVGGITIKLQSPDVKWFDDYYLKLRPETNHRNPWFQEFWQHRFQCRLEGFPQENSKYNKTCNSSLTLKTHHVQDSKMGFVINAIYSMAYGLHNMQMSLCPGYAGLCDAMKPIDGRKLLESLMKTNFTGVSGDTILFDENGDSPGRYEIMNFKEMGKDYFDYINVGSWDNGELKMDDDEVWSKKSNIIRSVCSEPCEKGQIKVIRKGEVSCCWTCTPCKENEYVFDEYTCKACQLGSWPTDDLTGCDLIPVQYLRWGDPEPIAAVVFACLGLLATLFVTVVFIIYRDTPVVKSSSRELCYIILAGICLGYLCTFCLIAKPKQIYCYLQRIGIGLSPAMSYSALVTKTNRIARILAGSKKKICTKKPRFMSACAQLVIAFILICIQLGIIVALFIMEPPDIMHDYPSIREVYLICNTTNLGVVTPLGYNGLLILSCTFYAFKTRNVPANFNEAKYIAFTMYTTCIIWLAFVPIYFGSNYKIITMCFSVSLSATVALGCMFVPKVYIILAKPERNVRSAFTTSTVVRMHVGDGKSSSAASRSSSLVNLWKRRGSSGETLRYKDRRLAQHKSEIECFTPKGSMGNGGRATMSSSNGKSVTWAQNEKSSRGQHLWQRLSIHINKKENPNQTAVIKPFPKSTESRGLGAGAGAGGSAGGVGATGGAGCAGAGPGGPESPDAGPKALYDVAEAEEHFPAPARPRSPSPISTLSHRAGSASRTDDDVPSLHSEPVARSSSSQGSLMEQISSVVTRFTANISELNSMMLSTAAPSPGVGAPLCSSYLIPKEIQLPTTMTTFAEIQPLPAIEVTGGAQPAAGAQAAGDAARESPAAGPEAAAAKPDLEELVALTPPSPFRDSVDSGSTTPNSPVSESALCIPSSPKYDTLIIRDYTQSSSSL

Molecular target: human mGluR5 (Homo sapiens, UniProt P41594)
Conditions: read-out: human mGluR5 IC50

In the case of `O=C(NC1CCCCCC1)c1cc(Oc2cncnc2)ccn1`, the IC50 is reported as greater than 30 µM.
